Results published in publication PMC4423116, “Tarantula toxins use common surfaces for interacting with Kv and ASIC ion channels” (eLife, 2015).

Key:
[1] = Depth-dependent quenching of Trp fluorescence by brominated (diBr) phosphatidylcholines; format: physicochemical; details: 6,7-, 9,10- or 11,12-diBr PC : POPG 1:1 vesicles, 1.2 mM lipid
Method: For depth-dependent fluorescence quenching experiments with brominated lipids, LUVs contained a 1:1 molar ratio of POPG and POPC 6,7-, 9,10-, or 11,12-1-palmitoyl-2-stearoyl(dibromo)-sn-glycero-3-phosphocholine (diBr; Avanti Polar Lipids, Alabaster, AL). Fluorescence spectra were recorded between 300 and 450 nm using an excitation wavelength of 280 nm, corrected for vesicle scattering and normalized to the zero lipid fluorescence intensity.

[2] = Membrane partitioning into lipid vesicles detected with intrinsic Trp fluorescence (blue shift); format: physicochemical; details: ∼2 µM toxin, pH 7.6, 25°C; for Kx (mole fraction partition coefficient): Trp fluorescence intensity at 320 nm vs available lipid (60% of total), LUVs POPC:POPG 1:1, 100 nm, 10 mM HEPES, 1 mM EDTA, excitation 280 nm, mean ± SEM (n = 3); for F/F0^max (partition function fit, 320 nm): maximum fluorescence increase at high lipid concentration, LUVs POPC:POPG 1:1
Method: Large unilamellar vesicles (LUVs) were prepared by drying the phospholipids from a chloroform solution under a nitrogen stream. The dried lipid film was rehydrated in buffer containing 10 mM HEPES, 1 mM EDTA, pH 7.6 (HEB). The resulting dispersions were extruded through 100 nm pore size polycarbonate filters (Millipore Corp.) till the solution became clear. All fluorescence measurements were performed in quartz cuvettes with 1 cm path length. Fluorescence spectra (averaging three spectra) were recorded between 300 and 450 nm (5 nm band pass, 0° polarizer) using an excitation wavelength of 280 nm (5 nm band pass, 90° polarizer) (SPEX FluoroMax 3 spectrofluorometer) and corrected for vesicle scattering. For lipid partitioning experiments, LUVs composed of a mix of 1:1 molar ratios of POPC (1-palmitoyl-2-oleoyl-sn-glycero-3-phosphocholine) and POPG (1-palmitoyl-2-oleoyl-sn-glycero-3-[phospho-rac-(1-glycerol)]) were added to a solution of toxin (∼2 μM final concentration), maintained at 25°C with continuous stirring in a total volume of 2 ml. Mole-fraction partitioning coefficients (Kx) were calculated by measuring the fluorescence intensity (F) at 320 nm and normalizing to the zero lipid fluorescence intensity (F0) ([Ladokhin et al., 2000]; [Milescu et al., 2007]). Kx was calculated based on the best fits of the following equation to the data: F/F0(L) = 1 + (F/F0^max − 1)Kx[L]/([W] + Kx[L]), where F/F0(L) is the change in fluorescence intensity for a given concentration of lipid, F/F0^max is the maximum fluorescence increase at high lipid concentrations, [L] is the average available lipid concentration (60% of total lipid concentration) and [W] is the molar concentration of water (55.3 M).

[3] = Acrylamide dequenching by lipid vesicles (quenching-enhanced fluorescence titration); format: physicochemical; details: LUVs POPC:POPG 1:1
Method: (§1) Protection of tryptophan fluorescence from acrylamide quenching was examined in the absence and presence of lipids (toxin: lipid = 1:500) by titration with increasing concentrations of acrylamide ([Milescu et al., 2007]). The Stern–Volmer quenching constant (KSV) was calculated based on the best fits of the following equation to the data: F0/F = 1 + KSV[Q], where F0 and F are fluorescence of the toxin in the absence and presence of acrylamide, and [Q] is the concentration of acrylamide. […] A solution containing ∼ 2 µM toxin and 0.3 M acrylamide was stirred continuously with addition of increasing concentrations of LUVs composed of 1:1 mixture of POPC and POPG. Fluorescence spectra (averaging three spectra) were recorded between 300 and 450 nm (5 nm band pass, 0° polarizer) using an excitation wavelength of 280 nm (5 nm band pass, 90° polarizer) (SPEX FluoroMax 3 spectrofluorometer) and corrected for vesicle scattering. For calculating mole–fraction partitioning coefficients (Kdx), the maximal fluorescence intensity (F at λmax) was measured and normalized to the zero lipid fluorescence intensity (F0). […]

[4] = Acrylamide quenching of Trp fluorescence (Stern-Volmer), protection by lipid vesicles; format: physicochemical; details: n = 3
Method: as §1

Kv2.1 channel = target: T1, Kv2.1 channel (Rattus norvegicus, UniProt P15387); assay: Inhibition of Kv2.1 channel currents in Xenopus oocytes (two-electrode voltage clamp), apparent affinity; format: cell-based; details: Kv2.1 in oocytes; for ∆∆G (perturbation energy): from apparent Kd of mutant vs GxTx-1E(Nle)
T1 construct: expressed in transfected cells; host or cells: Xenopus laevis oocytes, cRNA injection
T1 sequence (P15387 1-857): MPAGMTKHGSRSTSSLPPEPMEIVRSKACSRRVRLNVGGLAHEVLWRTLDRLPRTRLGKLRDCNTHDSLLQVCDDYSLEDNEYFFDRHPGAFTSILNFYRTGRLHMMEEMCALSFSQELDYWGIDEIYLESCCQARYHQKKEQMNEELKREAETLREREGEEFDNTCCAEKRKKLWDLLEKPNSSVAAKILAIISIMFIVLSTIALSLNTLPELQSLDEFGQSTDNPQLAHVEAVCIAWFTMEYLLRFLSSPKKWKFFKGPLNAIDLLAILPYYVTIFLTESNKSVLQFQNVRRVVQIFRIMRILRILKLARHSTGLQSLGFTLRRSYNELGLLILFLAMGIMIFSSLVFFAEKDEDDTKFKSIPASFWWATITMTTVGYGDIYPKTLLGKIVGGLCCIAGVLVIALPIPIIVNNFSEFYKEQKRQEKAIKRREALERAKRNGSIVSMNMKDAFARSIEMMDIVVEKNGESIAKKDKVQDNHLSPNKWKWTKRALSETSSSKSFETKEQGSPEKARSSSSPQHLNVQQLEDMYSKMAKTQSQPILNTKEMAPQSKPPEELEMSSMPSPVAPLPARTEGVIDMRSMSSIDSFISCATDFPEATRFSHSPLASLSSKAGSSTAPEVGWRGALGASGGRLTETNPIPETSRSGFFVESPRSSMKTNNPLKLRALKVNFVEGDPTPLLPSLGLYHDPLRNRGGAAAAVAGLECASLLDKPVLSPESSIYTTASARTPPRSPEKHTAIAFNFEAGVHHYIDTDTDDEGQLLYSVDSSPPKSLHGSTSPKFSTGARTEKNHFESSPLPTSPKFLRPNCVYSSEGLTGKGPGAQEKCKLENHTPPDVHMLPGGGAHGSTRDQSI

CCCC[C@H](NC(=O)[C@@H]1CCCN1C(=O)[C@H](Cc1ccccc1)NC(=O)[C@H](CC(N)=O)NC(=O)[C@@H]1CSSC[C@@H]2NC(=O)[C@H](C)NC(=O)[C@@H]3CCCN3C(=O)[C@H](CCCCN)NC(=O)CNC(=O)[C@H](CO)NC(=O)CNC(=O)[C@@H]3CSSC[C@H](NC(=O)[C@H](C(C)C)NC(=O)[C@H](Cc4ccc(O)cc4)NC(=O)[C@H](CCCCN)NC(=O)[C@@H]4CCCN4C(=O)[C@H](CSSC[C@H](NC(=O)[C@H](CCC(=O)O)NC(=O)CNC(=O)[C@@H](N)CCC(=O)O)C(=O)NCC(=O)NCC(=O)N[C@@H](Cc4ccccc4)C(=O)N[C@@H](Cc4c[nH]c5ccccc45)C(=O)N[C@@H](Cc4c[nH]c5ccccc45)C(=O)N[C@@H](CCCCN)C(=O)N3)NC2=O)C(=O)N[C@@H](CO)C(=O)N2CCC[C@H]2C(=O)N[C@@H](CCCCN)C(=O)N[C@@H](Cc2c[nH]c3ccccc23)C(=O)NCC(=O)N[C@@H](CC(C)C)C(=O)N1)C(=O)N1CCC[C@H]1C(=O)O [GxTx-1E(Nle)]
quenching of Trp fluorescence by brominated lipids (in words) [1]: strong quenching | Kx (mole fraction partition coefficient) [2]: (4.6 ± 0.8) × 10^6 | Kx (mole fraction partition coefficient) ([2]; listed as GxTx-1E): 4.6 ± 0.8 × 10^6 | F/F0^max (partition function fit, 320 nm) [2]: 2.3 ± 0.05 | Kdx (mole-fraction partitioning coefficient from acrylamide dequenching) ([3]; maximal fluorescence intensity vs available lipid, ∼2 µM toxin, acrylamide 0.2 M / 0.3 M (methods), mean ± SEM (n = 3)): (1.1 ± 0.2) × 10^7 | F/F0^max (dequenching function fit) ([3]; maximum fluorescence increase at highest lipid concentration, acrylamide present): 3.5 ± 0.02 | Ksv (Stern–Volmer constant), acrylamide quenching in aqueous solution ([4]; toxin ∼2 µM in solution, no lipid): 37.7 M⁻¹ | Ksv (Stern–Volmer constant), acrylamide quenching in presence of lipid vesicles ([4]; toxin ∼2 µM with 1.0 mM POPC:POPG 1:1 vesicles (toxin:lipid 1:500)): 9.1 M⁻¹

CCCC[C@H](NC(=O)[C@@H]1CCCN1C(=O)[C@H](Cc1ccccc1)NC(=O)[C@H](CC(N)=O)NC(=O)[C@@H]1CSSC[C@@H]2NC(=O)[C@H](C)NC(=O)[C@@H]3CCCN3C(=O)[C@H](CCCCN)NC(=O)CNC(=O)[C@H](CO)NC(=O)CNC(=O)[C@@H]3CSSC[C@H](NC(=O)[C@H](C(C)C)NC(=O)[C@H](Cc4ccc(O)cc4)NC(=O)[C@H](CCCCN)NC(=O)[C@@H]4CCCN4C(=O)[C@H](CSSC[C@H](NC(=O)[C@H](CCC(=O)O)NC(=O)CNC(=O)[C@@H](N)CCC(=O)O)C(=O)NCC(=O)NCC(=O)N[C@@H](Cc4ccccc4)C(=O)N[C@@H](C)C(=O)N[C@@H](Cc4c[nH]c5ccccc45)C(=O)N[C@@H](CCCCN)C(=O)N3)NC2=O)C(=O)N[C@@H](CO)C(=O)N2CCC[C@H]2C(=O)N[C@@H](CCCCN)C(=O)N[C@@H](Cc2c[nH]c3ccccc23)C(=O)NCC(=O)N[C@@H](CC(C)C)C(=O)N1)C(=O)N1CCC[C@H]1C(=O)O [Toxin W8A]
∆∆G (perturbation energy) (Kv2.1 channel): 2.23 kcal/mol | Kx (mole fraction partition coefficient) [2]: (1.3 ± 0.2) × 10^6 | F/F0^max (partition function fit, 320 nm) [2]: 1.8 ± 0.01

CCCC[C@H](NC(=O)[C@@H]1CCCN1C(=O)[C@H](Cc1ccccc1)NC(=O)[C@H](CC(N)=O)NC(=O)[C@@H]1CSSC[C@@H]2NC(=O)[C@H](C)NC(=O)[C@@H]3CCCN3C(=O)[C@H](CCCCN)NC(=O)CNC(=O)[C@H](CO)NC(=O)CNC(=O)[C@@H]3CSSC[C@H](NC(=O)[C@H](C(C)C)NC(=O)[C@H](Cc4ccc(O)cc4)NC(=O)[C@H](CCCCN)NC(=O)[C@@H]4CCCN4C(=O)[C@H](CSSC[C@H](NC(=O)[C@H](CCC(=O)O)NC(=O)CNC(=O)[C@@H](N)CCC(=O)O)C(=O)NCC(=O)NCC(=O)N[C@@H](Cc4ccccc4)C(=O)N[C@@H](Cc4c[nH]c5ccccc45)C(=O)N[C@@H](C)C(=O)N[C@@H](CCCCN)C(=O)N3)NC2=O)C(=O)N[C@@H](CO)C(=O)N2CCC[C@H]2C(=O)N[C@@H](CCCCN)C(=O)N[C@@H](Cc2c[nH]c3ccccc23)C(=O)NCC(=O)N[C@@H](CC(C)C)C(=O)N1)C(=O)N1CCC[C@H]1C(=O)O [Toxin W9A]
∆∆G (perturbation energy) (Kv2.1 channel): 1.93 kcal/mol | Kx (mole fraction partition coefficient) [2]: (7.6 ± 1.5) × 10^6 | F/F0^max (partition function fit, 320 nm) [2]: 2.5 ± 0.05

CCCC[C@H](NC(=O)[C@@H]1CCCN1C(=O)[C@H](Cc1ccccc1)NC(=O)[C@H](CC(N)=O)NC(=O)[C@@H]1CSSC[C@@H]2NC(=O)[C@H](C)NC(=O)[C@@H]3CCCN3C(=O)[C@H](CCCCN)NC(=O)CNC(=O)[C@H](CO)NC(=O)CNC(=O)[C@@H]3CSSC[C@H](NC(=O)[C@H](C(C)C)NC(=O)[C@H](Cc4ccc(O)cc4)NC(=O)[C@H](CCCCN)NC(=O)[C@@H]4CCCN4C(=O)[C@H](CSSC[C@H](NC(=O)[C@H](CCC(=O)O)NC(=O)CNC(=O)[C@@H](N)CCC(=O)O)C(=O)NCC(=O)NCC(=O)N[C@@H](Cc4ccccc4)C(=O)N[C@@H](Cc4c[nH]c5ccccc45)C(=O)N[C@@H](Cc4c[nH]c5ccccc45)C(=O)N[C@@H](CCCCN)C(=O)N3)NC2=O)C(=O)N[C@@H](CO)C(=O)N2CCC[C@H]2C(=O)N[C@@H](CCCCN)C(=O)N[C@@H](C)C(=O)NCC(=O)N[C@@H](CC(C)C)C(=O)N1)C(=O)N1CCC[C@H]1C(=O)O [Toxin W28A]
∆∆G (perturbation energy) (Kv2.1 channel): 3.14 kcal/mol | Kd^mut/Kd^wt (Kv2.1 channel; ratio of apparent Kd of mutant to GxTx-1E(Nle)): 197.7 | Kx (mole fraction partition coefficient) [2]: (5.5 ± 0.9) × 10^6 | F/F0^max (partition function fit, 320 nm) [2]: 1.5 ± 0.01
